pIC50: −log10 of the molar value.
Molecular target: hepatitis C virus NS3/4A protease (Hepatitis C virus genotype 1a, UniProt P27958)
Assay: HCV NS3/4A protease assay
Assay type: biochemical

The chains behind the UniProt entries cited, without tags or fusion partners. Residues count along the entry.
UniProt P27958, 1027-1657 limits assumed: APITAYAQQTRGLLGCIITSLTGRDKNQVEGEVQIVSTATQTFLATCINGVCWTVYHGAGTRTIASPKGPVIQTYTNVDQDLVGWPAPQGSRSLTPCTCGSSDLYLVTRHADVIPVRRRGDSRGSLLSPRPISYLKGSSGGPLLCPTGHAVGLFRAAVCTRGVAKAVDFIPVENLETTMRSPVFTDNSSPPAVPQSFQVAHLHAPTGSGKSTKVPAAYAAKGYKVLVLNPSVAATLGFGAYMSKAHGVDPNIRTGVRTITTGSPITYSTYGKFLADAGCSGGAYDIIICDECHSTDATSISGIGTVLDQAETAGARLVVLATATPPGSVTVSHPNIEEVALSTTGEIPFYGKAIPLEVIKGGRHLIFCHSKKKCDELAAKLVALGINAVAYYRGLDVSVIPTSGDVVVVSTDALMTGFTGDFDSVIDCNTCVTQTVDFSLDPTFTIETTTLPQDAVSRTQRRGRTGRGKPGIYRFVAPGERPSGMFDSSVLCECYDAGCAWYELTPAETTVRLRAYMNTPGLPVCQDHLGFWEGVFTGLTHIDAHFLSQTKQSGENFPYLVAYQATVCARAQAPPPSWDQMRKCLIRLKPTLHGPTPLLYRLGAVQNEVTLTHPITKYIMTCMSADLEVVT
UniProt P27958, 1658-1711 partner limits assumed: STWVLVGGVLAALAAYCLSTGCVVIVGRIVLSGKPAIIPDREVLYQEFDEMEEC

- pIC50: 5.29
Structure (SMILES): CC(C)OC(=O)[C@H](C)N[P@](=O)(OC[C@H]1O[C@@H](n2ccc(=O)[nH]c2=O)[C@](C)(F)[C@@H]1O)Oc1ccccc1 [Sovaldi]
